Sequences of proteins named here, by UniProt entry; tags and fusion partners are left off. A change or cut given only in a name is not applied to a line headed by its entry. Residues count along the entry.
UniProt O42275, 24-633 limits assumed: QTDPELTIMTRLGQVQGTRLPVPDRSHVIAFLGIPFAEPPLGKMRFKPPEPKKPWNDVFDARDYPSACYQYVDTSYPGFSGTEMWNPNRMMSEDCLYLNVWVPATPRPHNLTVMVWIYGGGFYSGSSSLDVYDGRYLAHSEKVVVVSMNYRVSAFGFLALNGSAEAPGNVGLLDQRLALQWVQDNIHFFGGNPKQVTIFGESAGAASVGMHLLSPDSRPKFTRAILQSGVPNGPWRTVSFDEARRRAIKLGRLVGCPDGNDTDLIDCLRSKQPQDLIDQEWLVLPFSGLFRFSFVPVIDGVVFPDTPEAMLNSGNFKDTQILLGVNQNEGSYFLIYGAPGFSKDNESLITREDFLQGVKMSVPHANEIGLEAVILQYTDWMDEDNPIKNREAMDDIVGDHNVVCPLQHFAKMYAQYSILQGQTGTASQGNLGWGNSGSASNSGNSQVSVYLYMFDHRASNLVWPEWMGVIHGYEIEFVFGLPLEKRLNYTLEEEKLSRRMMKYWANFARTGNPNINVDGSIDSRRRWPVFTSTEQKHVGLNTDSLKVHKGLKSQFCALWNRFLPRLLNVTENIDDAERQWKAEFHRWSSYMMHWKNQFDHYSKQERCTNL
UniProt P22303, 32-614 limits assumed: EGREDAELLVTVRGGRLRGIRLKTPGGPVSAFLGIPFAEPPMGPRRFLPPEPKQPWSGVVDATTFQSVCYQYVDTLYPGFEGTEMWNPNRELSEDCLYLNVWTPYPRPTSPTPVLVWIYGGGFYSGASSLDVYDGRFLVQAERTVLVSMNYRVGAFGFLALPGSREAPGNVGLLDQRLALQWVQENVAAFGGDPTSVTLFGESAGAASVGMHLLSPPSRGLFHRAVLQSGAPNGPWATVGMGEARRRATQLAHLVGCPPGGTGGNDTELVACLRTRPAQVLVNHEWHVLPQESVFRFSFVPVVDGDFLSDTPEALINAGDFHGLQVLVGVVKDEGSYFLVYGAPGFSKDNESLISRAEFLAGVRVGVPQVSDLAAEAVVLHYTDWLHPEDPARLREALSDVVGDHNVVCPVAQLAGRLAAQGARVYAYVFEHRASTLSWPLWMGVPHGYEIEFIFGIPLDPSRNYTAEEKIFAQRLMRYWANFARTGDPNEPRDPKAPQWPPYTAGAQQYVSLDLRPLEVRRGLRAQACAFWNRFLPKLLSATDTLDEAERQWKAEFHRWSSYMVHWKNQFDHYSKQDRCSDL
UniProt P32738: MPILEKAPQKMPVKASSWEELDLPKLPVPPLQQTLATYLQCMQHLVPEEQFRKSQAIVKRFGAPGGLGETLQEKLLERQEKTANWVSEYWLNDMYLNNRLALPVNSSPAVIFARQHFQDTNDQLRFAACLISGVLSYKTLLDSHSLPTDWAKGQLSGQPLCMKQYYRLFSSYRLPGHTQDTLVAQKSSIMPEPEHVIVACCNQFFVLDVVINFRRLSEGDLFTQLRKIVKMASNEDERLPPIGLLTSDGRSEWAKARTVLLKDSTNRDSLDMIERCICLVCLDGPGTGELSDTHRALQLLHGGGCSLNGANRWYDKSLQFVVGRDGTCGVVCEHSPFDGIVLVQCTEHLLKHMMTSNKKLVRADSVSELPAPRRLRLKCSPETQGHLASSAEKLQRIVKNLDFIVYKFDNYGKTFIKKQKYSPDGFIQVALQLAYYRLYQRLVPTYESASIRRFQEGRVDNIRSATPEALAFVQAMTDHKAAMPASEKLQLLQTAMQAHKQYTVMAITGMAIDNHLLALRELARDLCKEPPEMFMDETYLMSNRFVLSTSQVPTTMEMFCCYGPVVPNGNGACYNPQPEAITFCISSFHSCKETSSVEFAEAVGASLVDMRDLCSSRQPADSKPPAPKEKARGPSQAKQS
UniProt P23795, 31-613 limits assumed: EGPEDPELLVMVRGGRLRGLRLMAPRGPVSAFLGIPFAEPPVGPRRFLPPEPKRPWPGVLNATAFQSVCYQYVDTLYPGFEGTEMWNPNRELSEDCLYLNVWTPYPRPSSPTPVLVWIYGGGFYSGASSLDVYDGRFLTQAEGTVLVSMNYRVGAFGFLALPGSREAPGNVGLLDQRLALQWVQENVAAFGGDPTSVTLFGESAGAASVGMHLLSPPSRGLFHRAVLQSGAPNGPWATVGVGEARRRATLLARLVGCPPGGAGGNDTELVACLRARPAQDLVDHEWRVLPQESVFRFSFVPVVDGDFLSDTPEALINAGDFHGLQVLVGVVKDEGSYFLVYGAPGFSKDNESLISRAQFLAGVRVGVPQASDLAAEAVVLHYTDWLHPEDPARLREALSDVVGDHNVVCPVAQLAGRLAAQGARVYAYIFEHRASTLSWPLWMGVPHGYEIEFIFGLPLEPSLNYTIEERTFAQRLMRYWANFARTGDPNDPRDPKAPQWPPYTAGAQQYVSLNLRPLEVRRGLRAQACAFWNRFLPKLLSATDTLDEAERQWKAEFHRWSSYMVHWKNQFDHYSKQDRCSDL
UniProt P12657: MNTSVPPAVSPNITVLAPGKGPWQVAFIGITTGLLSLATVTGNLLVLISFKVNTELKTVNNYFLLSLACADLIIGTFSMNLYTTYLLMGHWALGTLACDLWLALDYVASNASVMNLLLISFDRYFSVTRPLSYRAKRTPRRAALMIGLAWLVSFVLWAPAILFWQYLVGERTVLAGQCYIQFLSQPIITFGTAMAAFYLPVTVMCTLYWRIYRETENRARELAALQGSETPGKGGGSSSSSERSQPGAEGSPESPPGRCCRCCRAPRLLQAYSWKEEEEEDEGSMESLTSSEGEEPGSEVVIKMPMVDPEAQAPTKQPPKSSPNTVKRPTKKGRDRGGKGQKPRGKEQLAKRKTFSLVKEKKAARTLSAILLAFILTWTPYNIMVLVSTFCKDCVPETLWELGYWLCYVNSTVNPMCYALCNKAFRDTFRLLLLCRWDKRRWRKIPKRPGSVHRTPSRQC
UniProt P32211: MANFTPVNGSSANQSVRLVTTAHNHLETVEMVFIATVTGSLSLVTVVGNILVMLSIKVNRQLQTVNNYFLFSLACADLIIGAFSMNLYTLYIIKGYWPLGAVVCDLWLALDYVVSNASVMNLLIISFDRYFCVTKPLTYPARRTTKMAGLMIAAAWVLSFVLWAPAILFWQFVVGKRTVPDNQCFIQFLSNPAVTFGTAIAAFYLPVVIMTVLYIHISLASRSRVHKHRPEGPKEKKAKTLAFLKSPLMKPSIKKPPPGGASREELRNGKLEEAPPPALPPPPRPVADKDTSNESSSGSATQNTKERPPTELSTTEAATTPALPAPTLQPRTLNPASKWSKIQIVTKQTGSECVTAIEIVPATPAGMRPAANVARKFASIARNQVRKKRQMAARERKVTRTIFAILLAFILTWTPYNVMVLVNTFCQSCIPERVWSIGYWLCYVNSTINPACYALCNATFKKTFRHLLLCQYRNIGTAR
UniProt Q920H4: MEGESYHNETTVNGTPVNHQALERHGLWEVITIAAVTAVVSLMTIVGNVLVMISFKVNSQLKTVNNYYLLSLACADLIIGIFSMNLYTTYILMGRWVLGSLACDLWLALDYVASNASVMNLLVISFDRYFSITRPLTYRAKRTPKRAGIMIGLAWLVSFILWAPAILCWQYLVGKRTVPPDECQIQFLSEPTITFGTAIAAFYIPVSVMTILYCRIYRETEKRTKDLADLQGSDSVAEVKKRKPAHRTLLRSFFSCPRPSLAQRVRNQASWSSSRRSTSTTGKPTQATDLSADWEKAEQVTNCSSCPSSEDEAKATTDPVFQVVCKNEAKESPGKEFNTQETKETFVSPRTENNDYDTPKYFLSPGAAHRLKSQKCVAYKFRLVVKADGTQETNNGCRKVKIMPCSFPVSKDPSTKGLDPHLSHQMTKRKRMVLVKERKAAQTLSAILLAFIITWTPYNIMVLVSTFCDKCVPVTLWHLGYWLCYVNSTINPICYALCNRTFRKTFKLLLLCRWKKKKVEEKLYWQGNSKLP
UniProt Q9ERZ3: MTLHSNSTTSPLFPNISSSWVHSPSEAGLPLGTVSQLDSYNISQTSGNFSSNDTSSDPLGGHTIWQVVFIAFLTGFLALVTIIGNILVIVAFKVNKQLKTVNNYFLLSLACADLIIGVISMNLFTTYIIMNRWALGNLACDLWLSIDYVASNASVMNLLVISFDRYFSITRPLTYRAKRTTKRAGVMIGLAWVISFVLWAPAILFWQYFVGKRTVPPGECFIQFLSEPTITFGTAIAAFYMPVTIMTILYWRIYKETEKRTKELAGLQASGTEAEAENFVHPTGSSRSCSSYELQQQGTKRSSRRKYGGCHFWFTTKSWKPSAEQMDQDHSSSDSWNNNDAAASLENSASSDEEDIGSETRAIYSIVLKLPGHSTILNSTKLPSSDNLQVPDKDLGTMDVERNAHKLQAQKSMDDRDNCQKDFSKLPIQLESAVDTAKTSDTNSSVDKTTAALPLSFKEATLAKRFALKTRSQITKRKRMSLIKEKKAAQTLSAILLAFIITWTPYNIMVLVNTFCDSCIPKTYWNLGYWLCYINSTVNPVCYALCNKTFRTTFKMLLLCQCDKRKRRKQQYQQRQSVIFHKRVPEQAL
UniProt Q9ERZ4: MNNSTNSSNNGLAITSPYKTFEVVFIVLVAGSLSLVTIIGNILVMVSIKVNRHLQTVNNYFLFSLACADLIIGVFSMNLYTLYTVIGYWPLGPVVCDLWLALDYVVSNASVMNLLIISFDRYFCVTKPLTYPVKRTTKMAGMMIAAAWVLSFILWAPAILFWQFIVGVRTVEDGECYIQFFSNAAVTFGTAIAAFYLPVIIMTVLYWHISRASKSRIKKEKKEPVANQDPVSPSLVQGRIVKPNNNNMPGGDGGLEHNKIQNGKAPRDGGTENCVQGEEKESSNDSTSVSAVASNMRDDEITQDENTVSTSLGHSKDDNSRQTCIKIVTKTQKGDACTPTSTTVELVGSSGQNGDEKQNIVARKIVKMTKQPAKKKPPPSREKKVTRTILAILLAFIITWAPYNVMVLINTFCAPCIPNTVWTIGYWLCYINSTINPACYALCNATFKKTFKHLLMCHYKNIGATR

According to BindingDB's records for 2913310:

What was measured:
Acetylcholinesterase [1] = target: Acetylcholinesterase (Electrophorus electricus, UniProt O42275); assay: ChEBML_27967
Acetylcholinesterase [2] = target: Acetylcholinesterase (Homo sapiens, UniProt P22303); assay: ChEBML_28161
[3] = target: Choline O-acetyltransferase (Rattus norvegicus, UniProt P32738); assay: ChEBML_27371
Acetylcholinesterase [4] = target: Acetylcholinesterase (Bos taurus, UniProt P23795); assay: ChEBML_27812
[5] = target: T1, Muscarinic acetylcholine receptor M1/M2/M3/M4/M5 (UniProt P12657+P32211+Q920H4+Q9ERZ3+Q9ERZ4); assay: ChEBML_138643
[6] = target: T1, Muscarinic acetylcholine receptor M1/M2/M3/M4/M5; assay: Compound was tested for the binding affinity towards muscarinic acetylcholine receptor in mouse brain membrane

Row | Structure (SMILES) | IC50 (Acetylcholinesterase [1]) [µM] | IC50 (Acetylcholinesterase [2]) [µM] | IC50 [3] [µM] | other results
1 | O=NCc1cccc[n+]1COCCOC[n+]1ccccc1CN=O | 120 | 340 | – | –
2 | COC[n+]1c(CN=O)n(C)c2ccccc21 | 180 | 198 | – | –
3 | Cn1cc[n+](COCc2cccc3ccccc23)c1CN=O | 7 | – | 7 | –
4 | Cn1cc[n+](COCCCc2ccccc2)c1CN=O | – | – | 15 | –
5 | CC(OC[n+]1ccn(C)c1CN=O)C(C)(C)C (configuration not stated) | – | – | 16 | –
6 | COC[n+]1ccn(C)c1CN=O | 290 | 134 | 290 | IC50 (Acetylcholinesterase [4]): 139 µM; IC50 [5]: 1000 µM
7 | Cn1c(CN=O)[n+](C)c2ccccc21 | – | 123 | – | –
8 | NC(=O)c1cc[n+](COC[n+]2ccccc2CN=O)cc1 | – | – | 803 | IC50 [6]: 160 µM
9 | C[n+]1ccccc1CN=O | – | – | – | IC50 [5]: 170 µM
